Consider three molecules from patent US20240109930A1, “TRIAZOLYL-METHYL SUBSTITUTED ALPHA-D-GALACTOPYRANOSIDE DERIVATIVES” (Idorsia Pharmaceuticals Ltd, priority 2021, published 2024).

The chains behind the UniProt entries cited, without tags or fusion partners.
UniProt P17931, whole entry: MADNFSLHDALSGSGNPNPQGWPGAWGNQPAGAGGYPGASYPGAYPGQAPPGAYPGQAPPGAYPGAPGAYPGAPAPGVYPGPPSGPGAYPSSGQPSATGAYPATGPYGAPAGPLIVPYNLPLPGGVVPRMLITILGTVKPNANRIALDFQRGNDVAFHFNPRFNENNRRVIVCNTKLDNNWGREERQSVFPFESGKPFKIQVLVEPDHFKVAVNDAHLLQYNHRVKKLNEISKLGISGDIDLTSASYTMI

By IC50 is commonly meant the point on the concentration scale where inhibition reaches its midpoint.

This experiment has as its target human Gal-3 (hGal-3) (Homo sapiens (Human), UniProt P17931). Description: Competitive binding assay: biotinylated hGal-3 binding to microplate-adsorbed asialofetuin (ASF). As to conditions: read-out: Gal-3 IC50, IC50 values from several measurements given as geomean. As to the method:
The inhibitory activity of compounds is determined in competitive binding assays. This spectrophotometric assay measures the binding of biotinylated human Gal-3 (hGal-3) or human Gal-1 (hGal-1), respectively, to a microplate-adsorbed glycoprotein, asialofetuin (ASF) (Proc Natl Acad Sci USA. 2013 Mar. 26; 110(13):5052-7.). Alternatively, and preferably, a human Gal-1 version in which all six cysteines are substituted by serines may be used.
Briefly, compounds are serially diluted in DMSO (working dilutions). ASF-coated 384well plates are supplemented with 22.8 μL/well of biotinylated hGal-3 or hGal-1 in assay buffer (i.e. 300-1000 ng/mL biotinylated hGal-3 or hGal-1) to which 1.2 μL of compound working dilutions are added and mixed.
Plates are incubated for 3 hours at 4° C., then washed with cold assay buffer (3×50 uL), incubated for 1 hour with 25 μL/well of a streptavidin-peroxidase solution (diluted in assay buffer to 80 ng/mL) at 4° C., followed by further washing steps with assay buffer (3×50 uL). Finally, 25 μL/well of ABTS substrate is added. OD (410 nm) is recorded after 30 to 45 min and IC50 values are calculated.
The calculated IC50 values may fluctuate depending on the daily assay performance. Fluctuations of this kind are known to those skilled in the art. IC50 values from several measurements are given as geomean values.

As for `COC(=O)C(C)(C)n1cc(C[C@H]2O[C@H](CO)[C@H](O)[C@H](n3cc(-c4ccc(C)c(F)c4F)nn3)[C@H]2OC)nn1`, the IC50 is 60 nM.

With `CO[C@@H]1[C@@H](n2cc(-c3ccc(C#N)c(F)c3F)nn2)[C@@H](O)[C@@H](CO)O[C@@H]1Cc1cn(C2(C(F)F)CCC2)nn1`, the IC50 is 30 nM.

In the case of `COC(=O)C(C)(C)n1cc(C[C@H]2O[C@H](CO)[C@H](O)[C@H](n3cc(-c4ccc(Cl)c(F)c4F)nn3)[C@H]2OC)nn1`, the half-inhibitory concentration (IC50) was 60 nM.
